Values quoted from earlier work, collected in article PMC7262448, “Disconnect between signalling potency and in vivo efficacy of pharmacokinetically optimised biased glucagon-like peptide-1 receptor agonists” (Molecular Metabolism, 2020).

Tested on: human plasma proteins
Details: EScalate

Substance: liraglutide
- Unbound fraction in human plasma: 0.51%
